According to patent publication US10954503B2, “Antidotes for factor Xa inhibitors and methods of using the same” (Alexion Pharmaceuticals, Inc., priority 2007, dated 2021):

Experiments:
thrombin generation = assay: Thrombin generation assay in platelet poor or platelet rich plasma (RFU); assay type: biochemical, human; conditions: 680 nM antidote; varying concentrations of betrixaban
Procedure: In this example, human platelet poor or platelet rich plasma samples were prepared from blood of healthy donors drawn into 0.32% citrate. PRP and PPP were prepared by spinning the anticoagulated blood at ˜100×gravity or 1000× gravity for 20 minutes, respectively, at room temperature. 75-100 microliter (uL) plasma was mixed with CaCl2) and Z-Gly-Gly-Arg-aminomethylcoumarin (Z-GGR-AMC, a thrombin fluorogenic substrate). Tissue factor (Innovin, Dade Behring) was added to initiate the generation of thrombin. For a typical experiment, the reaction mixture contained 15 millimolar (mM) Ca′, 100 micromolar (04) Z-GGR-AMC, and 0.1 nanomolar (nM) tissue factor (TF) (Innovin). Thrombin formation was monitored continuously at 37° C. by a fluorometric plate reader (Molecular Devices) measuring the relative fluorescence units (RFU). Inhibitor and antidote, when present, were pre-incubated with plasma for 20 minutes at room temperature before initiation of thrombin generation.

[1] = test system: clot formation in human plasma; assay: Clotting prolongation assay, 96-well plate format (OD405 turbidity change); assay type: biochemical
Procedure: (§1) Two clotting assay formats were used to test the effects of factor Xa inhibitors and the antidote on clotting prolongation. In the first format, a 96-well plate was used to measure multiple samples at the same time. In the second assay format, aPTT was measured with a conventional coagulation instrument (MLA Electra 800 automatic coagulation timer).
In the 96-well plate format method, human platelet poor plasma or platelet rich plasma was prepared similarly as procedures in Example 2. 75-100 μL plasma was recalcified with CaCl2), incubated at 37° C. for 3 minutes and clot formation was initiated by adding tissue factor (Innovin, Dade Behring) or an aPTT reagent (Actin FS, Dade Behring). Change of OD405 was monitored continuously by a plate reader (Molecular Devices). Clotting time was defined as the time (second) when the half maximal value of absorbance (OD405 nm) change was reached. Factor Xa inhibitor and antidote, when present, were pre-incubated with plasma at room temperature for 20 minutes before initiation of the reaction.
Turbidity changes were measured according to procedures described in Example 3.

aPTT of human plasma = assay: aPTT clotting assay with MLA Electra 800 automatic coagulation timer; assay type: biochemical
Procedure: as §1
The effect of 1 antiXa Unit/mL LMWH on aPTT prolongation of plasma and the reversal of inhibitory effect was measured by a MLA Electra 800 Automatic coagulation timer. 100 μL pooled citrate anticoagulated human plasma was mixed with enoxaparin and different concentrations of antidote. Prior to measurement of clotting time, aPTT reagent (Actin FS, Dade Behring) and CaCl2) were added per manufacturer's instructions.

[2] = Binding affinity of antidote to betrixaban (nonlinear regression of initial velocities); conditions: read-out: Kd (binding affinity with betrixaban)
Procedure: After incubation at room temperature for 20 minutes, 100 μM Spectrozyme-fXa (a factor Xa chromogenic substrate, American Diagnostica) was added to the mixture and the rate of substrate cleavage was monitored continuously for 5 minutes at 405 nanometer (nm) by a plate reader. In FIG. 5, the chromogenic activity was normalized to active fXa in the absence of any inhibitor.

human thrombin = biological target: T1, human thrombin (Homo sapiens, UniProt P00734); assay: Thrombin chromogenic assay (S2288) with or without argatroban; assay type: biochemical; conditions: thrombin 5 nM; argatroban 50 nM; antidote up to 538 nM
T1 construct: catalyzes the conversion of prothrombin to thrombin
Procedure: The effect of the antidote des-Gla anhydro-fXa on thrombin activity toward a chromogenic substrate S2288 (200 μM) was measured similarly as before with or without Argatroban, a specific small molecule IIa inhibitor.
After incubation at room temperature for 20 min, an amidolytic substrate 52288 (200 uM) was added to the mixture and the rate of p-nitroanilide substrate cleavage was monitored by absorbance at 405 nm.

whole blood INR = assay: In vivo mouse model, whole blood INR after oral betrixaban and IV antidote; design: species or system male C57Bl/6 mice; conditions: for % Correction / Expected INR / Measured INR: mean
Procedure: 15 mg/kg was used for antidote treated group.

Purified fXa = Purified fXa (Homo sapiens, UniProt P00742); assay: In vitro correction of inhibition of purified fXa by fXa inhibitors; assay type: biochemical
Procedure: As expected, the antidotes contemplated by this invention were also able to bind and neutralize other active site directed fXa inhibitors. […] Purified fXa (3.0 nM), inhibitor (7.5 nM), and different concentrations of antidote were incubated for 10 min at 22° C. in a buffer with 20 mM Tris, 150 mM NaCl, 0.1% BSA, pH7.4. fXa activity was assayed similar to Example 4.

[3] = test system: prothrombin time of pooled human plasma; assay: Prothrombin time (PT) human plasma clotting assay; assay type: biochemical; conditions: 1.9 μM recombinant antidote
Procedure: In FIG. 20, the effect of recombinant antidote protein on reversal of anticoagulation by a small molecule factor Xa inhibitor (rivaroxaban, Bay 59-7939) was tested in a human plasma clotting assay. As reported by Perzborn et al, J. Thromb. Haemost. 3:514-521, 2005; prothrombin time measurements are an accurate method for evaluating the anticoagulant effect of rivaroxaban. The effect of 1 μM rivaroxaban on prothrombin time (PT) prolongation of pooled human plasma and the reversal of inhibitory effect was measured by a MLA Electra 800 Automatic coagulation timer. 100 μL pooled citrate anticoagulated human plasma was mixed with rivaroxaban and different concentrations of antidote. Prior to measurement of clotting time, rabbit brain Thromboplastin C Plus reagent (Dade Behring) was added to plasma samples per manufacturer's instructions. Addition of 1.9 μM recombinant antidote produced a 100% correction of anticoagulation produced by 1 μM rivaroxaban.
In Table F, the effect of recombinant antidote protein on reversal of anticoagulation by apixaban was tested in a human plasma clotting assay. […] The effect of 1 μM and 1.5 μM apixaban on prothrombin time (PT) prolongation of pooled human plasma and the reversal of inhibitory effect was measured by a MLA Electra 800 Automatic coagulation timer. […]

[4] = Pharmacokinetics of antidote in rat; assay type: in vivo, Sprague-Dawley rats; conditions: SD rats
Procedure: One milligram of antidote was administered as a short intravenous infusion over five minutes to four Sprague-Dawley rats. Serial plasma samples were collected and analyzed for antidote concentration using an enzyme-linked immunosorbent assay (ELISA). Plasma concentration-time profiles of the antidote can be described by a two compartment model. […] Because of the need to immediately maintain antidote plasma concentration above that of a factor Xa inhibitor (the anticoagulant), the distribution half-life is expected to have a much bigger impact than the terminal half-life on the dose selection during an overdose treatment.

[5] = Pharmacokinetics of antidote in rhesus monkey; assay type: in vivo; conditions: rhesus monkeys; 10 mg IV over ten minutes; listed as recombinant antidote
Procedure: Two animals were each dosed with 10 mg antidote by intravenous dosing over a ten minute period. Plasma samples for determination of T1/2 were carried out in a manner similar to that in the rat study.

Molecule: pd-Antidote: des-Gla anhydro fXa derivative, SEQ ID NO. 10; chymotryptic digestion of anhydro-fXa removes Gla-domain residues 1-44
- reversal of the anticoagulant activity of betrixaban (thrombin generation): complete reversion; also recorded: substantially complete restoration of fXa activity
- effect on the anticoagulant activity of enoxaparin ([1]; enoxaparin 0.3125-1.25 U/mL, 563 nM antidote, aPTT reagent): capable of reversing the anticoagulant activity; also recorded: significantly neutralized
- antidote concentration for return of aPTT to near normal level of control plasma (aPTT of human plasma; 400 nM betrixaban): higher than 1610 nM
- effect on aPTT of control plasma (aPTT of human plasma; antidote alone, highest concentration tested 2576 nM): no effect
- EC50 (aPTT of human plasma; with 400 nM betrixaban, read-out: EC50 of the antidote): ~656 nM
- Kd [2]: 0.319 nM and 0.32 nM
- effect on thrombin activity and its inhibition by argatroban (human thrombin): did not exhibit significant antidote activity; also recorded: does not detectably affect
- reduction of functional betrixaban based on INR measurements (whole blood INR; betrixaban 15 mg/kg PO, single IV injection of antidote 300 ug, […]): > 50%
- % Correction (whole blood INR; pd-Antidote treated mice, […]): 7.2%
- Expected INR (whole blood INR; pd-Antidote treated mice, […]): .0
- Measured INR (whole blood INR; pd-Antidote treated mice, […]): .9
- correction of the inhibitory effects of tested inhibitors (Purified fXa; 204 nM pd-Antidote, betrixaban, rivaroxaban, apixaban 7.5 nM): at least 60%

B1: r-Antidote: fXa derivative lacking residues 6-39 of SEQ ID NO. 3, S379A, expressed in CHO cells, after removal of the linker (SEQ ID NO. 13) (protein)
chain: ANSFLFWNKYKDGDQCETSPCQNQGKCKDGLGEYTCTCLEGFEGKNCELFTRKLCSLDNGDCDQFCHEEQNSVVCSCARGYTLADNGKACIPTGPYPCGKQTLERIVGGQECKDGECPWQALLINEENEGFCGGTILSEFYILTAAHCLYQAKRFKVRVGDRNTEQEEGGEAVHEVEVVIKHNRFTKETYDFDIAVLRLKTPITFRMNVAPACLPERDWAESTLMTQKTGIVSGFGRTHEKGRQSTRLKMLEVPYVDRNSCKLSSSFIITQNMFCAGYDTKQEDACQGDAGGPHVTRFKDTYFVTGIVSWGEGCARKGKYGIYTKVTAFLKWIDRSMKTRGLPKAKSHAPEVITSSPLK
- correction of the inhibitory effect of enoxaparin ([1]; 50 nM r-Antidote, 1.25 U/mL enoxaparin): > 75%
- correction of the inhibitory effect of enoxaparin ([1]; 508 nM r-Antidote, 0.3125-1.25 U/mL Enoxaparin): > 75%
- correction of ex vivo whole blood INR (whole blood INR; betrixaban 15 mg/kg PO, single IV injection of r-antidote): > 50%
- % Correction (whole blood INR; r-Antidote treated mice, […]): 7.3%
- Expected INR (whole blood INR; r-Antidote treated mice, […]): .0
- Measured INR (whole blood INR; r-Antidote treated mice, […]): .3
- reversal of apixaban (Purified fXa; 186 nM r-Antidote, apixaban): > 70%
- correction of anticoagulation ([3]; 1 μM rivaroxaban): 100%
- correction of anticoagulation ([3]; […] apixaban): 97%
- plasma half life of clearance (T1/2) [4]: 19 min
- plasma half life of clearance (T1/2) [5]: 30 min

“And” between values parts separate entries of the source, which are not always exact repeats. Identical values can stand only once. “Also recorded” adds a separate entry of the source.
